Measurements reported in article PMC4033665 (Journal of Medicinal Chemistry, 2014).

The chains behind the UniProt entries cited, without tags or fusion partners. Residues count along the entry.
UniProt Q07820, 171-327: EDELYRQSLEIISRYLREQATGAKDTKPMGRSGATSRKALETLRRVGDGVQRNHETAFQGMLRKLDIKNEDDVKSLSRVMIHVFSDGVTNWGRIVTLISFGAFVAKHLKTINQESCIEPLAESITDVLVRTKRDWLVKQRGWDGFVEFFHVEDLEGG

Molecular target: human Mcl-1 (Homo sapiens, UniProt Q07820)
Format: binding

Compound | binding efficiency index (BEI), ratio between pKi and molecular weight | decreased potency (FP) relative to 26 [fold]
O=C(O)CSc1cc(NS(=O)(=O)c2ccc(Oc3ccccc3)cc2)c2ccccc2c1O [Compound 21, 2-((1-Hydroxy-4-(4-phenoxyphenylsulfonamido)naphthalen-2-yl)thio)acetic Acid] | 14.0 | 
O=C(O)CSc1cc(NC(=O)Cc2ccc(Cl)cc2)c2ccccc2c1O [Compound 28, 2-((4-(2-(4-Chlorophenyl)acetamido)-1-hydroxynaphthalen-2-yl)thio)acetic Acid] |  | 2
